## Yeast mating assay B: variants of the scFv Ab-14

Antigen: PDVDLGDISGINAS, a 14-residue peptide of the SARS-CoV-2 spike HR2 region.

Parent scFv Ab-14: VH joined to VL by the linker GGGGSGGGGSGGGGS. Changes lie in the heavy chain CDRs alone.
VH: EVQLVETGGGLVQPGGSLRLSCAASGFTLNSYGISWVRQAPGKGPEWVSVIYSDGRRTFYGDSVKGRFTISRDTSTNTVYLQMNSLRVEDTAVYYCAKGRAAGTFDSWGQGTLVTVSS
VL: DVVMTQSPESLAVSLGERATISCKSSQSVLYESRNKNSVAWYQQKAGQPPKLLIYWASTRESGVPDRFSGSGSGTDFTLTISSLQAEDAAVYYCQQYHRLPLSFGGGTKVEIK

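Designed CDR sequences, proposed from the first random library and measured here. Their group label is 14H_GP_Gen (GP: Gaussian process model; Gen: genetic algorithm; a sequence that several methods proposed may carry one label only). Affinity was read by AlphaSeq, a pooled yeast mating assay with surface-displayed partners. After mating in shaken culture at 30 °C for 16 h, diploids were selected and their barcode pairs sequenced. The ratio of observed to expected reads was calibrated, replicate by replicate, on BCL2-family standards whose Kd was known from biolayer interferometry. Mating was done six times.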

Each variant is given by its three heavy chain CDRs, as the data file delimits them; those of the parent are GFTLNSYGIS, VIYSDGRRTFYGDSVK, GRAAGTFDS. Numbers give log10(Kd / nM), so 0 is 1 nM and 3 is 1 µM. Smaller is tighter. "n.d." marks a missing value. The strain was present, yet no cells mated with the target were sequenced in that replicate, which points to weak or no binding.

CDR-H1	CDR-H2	CDR-H3	log10 Kd (nM) by replicate	signal with controls
GFTLDSYGIS	VIYSDGRRTFYIDSVK	GQAAGTFDS	n.d. / n.d. / n.d. / n.d. / n.d. / n.d.	0/18
KFSLNSYGIS	VIYSDGRRTFYADSVK	GRNAGTFDS	n.d. / n.d. / n.d. / n.d. / -0.78 / n.d.	0/18
GFELNEYGIS	VIYSDGRRTFYGDSVK	GRQAGTFDK	0.41 / 0.20 / 0.24 / 0.18 / 0.17 / 0.39	1/18 (3.06)
GFELNSYGIS	VIYSDGRRTFYHDSVK	GRTAGTFDT	0.57 / 0.39 / -0.04 / 0.66 / -0.02 / 0.31	0/18
MFELNSYGIS	VIYADGRRTFYGDSVK	GQAAGTFDS	n.d. / 1.56 / 1.46 / 1.44 / 2.73 / 1.46	0/18
GFSLKSYGIS	VIYSDGRRTAYGDSVK	GRAAGTFDS	1.40 / 0.42 / 0.89 / 0.75 / 1.44 / 0.72	1/18 (1.88)
GFYLNSYGIS	VIYSDGRRTFYIDSVK	GNAAGTFDS	n.d. / n.d. / n.d. / n.d. / n.d. / 1.62	0/18
GFELNSYGIS	VIYSDGRRTFYADDVK	GRMAGTFDS	0.80 / 1.11 / 0.30 / 0.24 / 0.64 / 0.54	2/18 (2.43)
GFSLNSYGIS	VIYSDGRRTAYGDSVK	GRSAGTFDS	0.94 / n.d. / n.d. / 2.26 / 0.30 / n.d.	0/18
KFSLNEYGIS	VIYSDGRRTFYGDSVK	GRHAGTFDS	1.38 / 1.54 / 1.89 / 1.22 / 1.19 / 1.38	1/18 (1.95)
GFGLNEYGIS	VIYSDGRRTFYGDQVK	GRTAGTFDS	0.76 / 0.46 / 0.48 / 0.10 / 0.55 / 0.78	0/18
GFDLNSYGIS	VIYSDGRRTFYADSVK	GKAAGTFDD	0.27 / 0.05 / 0.02 / -0.20 / 0.15 / -0.05	1/18 (2.22)
GFELNMYGIS	VIYSDGRRTFYGDSVK	GQAAGTFDT	0.52 / 1.33 / 0.57 / 1.24 / 0.65 / 0.32	0/18
DFDLNSYGIS	VIYSDGRRTFYGDSVK	GRTAGTFDS	0.57 / 0.36 / 0.31 / 0.28 / 0.14 / 0.59	0/18
GFELNSYGIS	VIYSDGRRTFYGDSVK	GSTAGTFDV	-0.03 / -0.02 / 0.20 / -0.02 / -0.29 / 0.05	0/18
GFDLNSYGIS	VIYSDGRRTFYQDAVK	GRTAGTFDS	1.05 / 0.17 / 1.09 / 0.76 / -0.47 / -0.29	0/18
GFELNSYGIS	VIYADGRRTFYGDSVK	GMAAGTFDS	0.40 / 0.11 / -0.08 / 0.12 / 0.79 / 0.05	1/18 (1.77)
GFDLNSYGIS	VIYSDGRRTFYADQVK	GKAAGTFDS	0.61 / 0.08 / 0.08 / -0.11 / -0.23 / 0.17	0/18
GFKLNSYGIS	VIYSDGRRTFYGDSVK	GVEAGTFDS	0.64 / 0.25 / 0.47 / 1.29 / 1.00 / 0.52	1/18 (2.12)
GFWLNEYGIS	VIYSDGRRTFYGDSVK	GTAAGTFDS	0.39 / 1.59 / n.d. / 0.65 / 1.06 / 2.00	0/18
GFSLNSYGIS	VIYSDGRRTFYGDKVK	GKTAGTFDS	n.d. / 1.54 / 0.40 / 0.58 / n.d. / 1.41	0/18
GFELNSYGIS	VIYSDGRRTFYSDSVK	GRTAGTFDT	0.34 / -0.06 / -0.17 / -0.33 / -0.42 / -0.27	0/18
GFNLNSYGIS	VIYSDGRRTFYGDSVK	GQAAGTFDD	n.d. / 2.13 / n.d. / n.d. / 1.11 / 2.04	0/18
GFNLNSYGIS	VIYSDGMRTFYVDSVK	GRQAGTFDS	1.21 / 2.36 / 1.44 / 1.04 / 1.01 / 1.89	0/18
GFQLNSYGIS	VIYSDGRRTFYTDSVK	GEAAGTFDS	1.57 / 0.74 / 1.04 / 0.89 / 1.35 / 0.90	0/18
GFDLNSYGIS	VIYSDGRRTFYSDSVK	GKAAGTFDT	0.55 / 0.15 / -0.56 / -0.16 / -0.03 / 0.08	0/18
GFDLNSYGIS	VIYSDGKRTFYGDSVK	GRTAGTFDT	-0.17 / -0.32 / -0.39 / -0.44 / -0.28 / -0.24	2/18 (2.39)
GFSLNSYGIS	VIYADGRRTFYGDSVK	GQTAGTFDS	-0.26 / -0.50 / -0.28 / -0.86 / -0.35 / -0.21	0/18
GFQLNEYGIS	VIYSDGRRTFYGDSVK	GRYAGTFDS	1.69 / 1.80 / 1.22 / 1.78 / 1.70 / 1.58	0/18
GFDLNSYGIS	VIYSDGRRTFYVDRVK	GRTAGTFDS	2.19 / n.d. / 1.56 / 1.35 / 2.29 / 1.35	0/18
GFDLNSYGIS	VIYSDGRRTFYGDSVK	GSEAGTFDS	0.08 / -0.03 / -0.17 / -0.33 / -0.28 / 0.01	0/18
GFDLNSYGIS	VIYSDGRRTFYHDSVK	GRSAGTFDS	0.98 / 0.96 / 1.14 / -0.07 / 1.43 / 1.70	0/18
KFQLNEYGIS	VIYSDGRRTFYGDSVK	GRNAGTFDS	n.d. / n.d. / n.d. / n.d. / n.d. / n.d.	0/18
GFQLNSYGIS	VIYSDGRRTAYGDSVK	GQAAGTFDS	0.57 / -0.22 / -0.13 / -0.86 / 0.04 / -0.07	2/18 (0.99)
GFSLNEYGIS	VIYSDGRRTFYHDSVK	GRHAGTFDS	0.48 / -0.02 / 0.22 / -0.36 / -0.12 / -0.28	1/18 (1.00)
GFSLNEYGIS	VIYSDGKRTFYGDRVK	GRTAGTFDS	-0.14 / 0.34 / 0.07 / -0.03 / 0.05 / -0.11	1/18 (4.12)
GFDLNEYGIS	VIYSDGRRTFYGDSVK	GKTAGTFDS	-0.30 / -0.58 / -0.24 / -0.49 / -0.83 / -0.50	0/18
GFQLNSYGIS	VIYSDGRRTFYGDQVK	GQTAGTFDS	n.d. / 1.35 / 0.98 / n.d. / n.d. / n.d.	0/18
GFQLNEYGIS	VIYSDGRRTFYGDSVK	GRTAGTFDA	0.15 / -0.41 / -0.20 / -0.22 / -0.52 / -0.01	0/18
GFNLNSYGIS	VIYSDGRRTFYADDVK	GRQAGTFDS	0.29 / -0.07 / -0.10 / 0.42 / 0.37 / -0.21	0/18
GFDLNSYGIS	VIYSDGRRTAYGDRVK	GRAAGTFDS	0.20 / -0.02 / 0.03 / -0.08 / -0.07 / -0.09	1/18 (2.50)
GFWLNEYGIS	VIYSDGRRTFYHDSVK	GKAAGTFDS	1.19 / 0.17 / 0.56 / 1.50 / n.d. / 0.91	0/18
GFTLNSYGIS	VIYSDGRRTFYSDDVK	GEAAGTFDT	0.62 / 0.33 / 1.05 / 0.37 / 0.55 / 0.54	0/18
GFELNEYGIS	VIYSDGRRTFYHDSVK	GRTAGTFDT	0.71 / -0.77 / 0.64 / 0.40 / -0.12 / 0.24	0/18

From the list, the first 2 with no signal in any replicate:

CDR-H1,CDR-H2,CDR-H3,log10 Kd (nM) by replicate,signal with controls
GFTLDSYGIS,VIYSDGRRTFYIDSVK,GQAAGTFDS,n.d. / n.d. / n.d. / n.d. / n.d. / n.d.,0/18
KFQLNEYGIS,VIYSDGRRTFYGDSVK,GRNAGTFDS,n.d. / n.d. / n.d. / n.d. / n.d. / n.d.,0/18

Values of this round are not directly comparable with the first-round values of the same sequences. Background: pairings of all heavy chain designs with three empty control strains gave a value in 1% of cases (median 2.08, 5th percentile 0.84). Values in that range, when seen in few replicates, are hard to tell from nonspecific mating. Also given: how often the same scFv was detected with the empty control strains, with their mean in brackets. The authors averaged sequences with at least three values out of six and counted those with two or fewer as poor binders. The parent sequence was in this pool as ten entries: three were never detected, three once, and four in most replicates, with averages from 0.34 to 2.37.

Data: MIT Lincoln Laboratory AlphaSeq set, Li et al. 2023, doi:10.1038/s41467-023-39022-2, as distributed in FLAb.